Measurements: article PMC11149697

Chains of the proteins cited; added tags and fusions are not shown.
UniProt P30989, whole entry: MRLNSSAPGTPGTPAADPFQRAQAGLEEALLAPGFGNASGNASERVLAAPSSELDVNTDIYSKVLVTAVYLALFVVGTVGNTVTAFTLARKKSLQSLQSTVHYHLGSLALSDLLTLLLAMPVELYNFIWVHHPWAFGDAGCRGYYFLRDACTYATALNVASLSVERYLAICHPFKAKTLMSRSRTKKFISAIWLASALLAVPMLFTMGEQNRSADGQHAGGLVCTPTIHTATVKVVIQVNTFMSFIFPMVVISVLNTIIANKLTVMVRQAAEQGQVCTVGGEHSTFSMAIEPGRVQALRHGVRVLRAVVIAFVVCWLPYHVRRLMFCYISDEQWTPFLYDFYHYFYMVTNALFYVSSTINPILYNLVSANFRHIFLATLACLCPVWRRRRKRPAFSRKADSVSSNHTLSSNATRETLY

Target: neurotensin receptor 1 (NTSR1) (human) (UniProt P30989)

## Glu1NTS (peptide)
  EC50 of NTSR1 activation, IP1 accumulation assay in NTSR1-CHO cells: 4 nM
